{
  "source": "patent US20130052137A1",
  "about": "“PARA AMINO BENZOIC ACID BASED NANOTUBES” (priority 2009, published 2013)",
  "assay": "Distribution of nanotubes in organs after oral ingestion (confocal fluorescence, Metamorph gray value)",
  "details": "dye in yeast paste, third instar larvae",
  "data": [
    {"substance": "Rhodamine B", "values": [
      {"measurement": "distribution of raw dye in internal organs", "value": "only accumulated in the gut cells"}
    ]}
  ]
}
